Values of other authors, collected in US9861096B2, “Biodegradable chemical delivery system” (Cornell University, priority 2008, dated 2018).

Conditions: octanol/aqueous pH 7.65; cited from earlier work

SMILES: CC(C)(C)NC[C@H](O)COc1nsnc1N1CCOCC1 [timolol]
- log Kow: 1.91
